Target: catechol-O-methyltransferase (COMT) (Homo sapiens, UniProt P21964)
Assay: COMT inhibition assay (HTRF, production of SAH from SAM)
Conditions: recombinant human COMT, table does not say whether MB-COMT or S-COMT
Description: The ability of compounds to inhibit the activity of catechol-O-methyltransferase (COMT) was determined by a homogenous time-resolved fluorescent (HTRF) assay (Lina et al, 2012; kit from CisBio, Codolet, France). This assay measures the production of S-adenosyl homocysteine (SAH) from the methyl donor S-adenosyl methionine. Recombinant human membrane bound COMT (MB-COMT; M51A variant) was expressed in HEK 293F cells using 293Fectin (Life Technologies, Gent, Belgium) and membranes prepared. The membranes were re-suspended in buffer (20 mM Tris/HCl pH 7; 10 mM glycerol; 2 mM MgCl2; 10 mM NaCl), aliquoted and stored at −80° C. […]
For the human MB-COMT assay, membranes (62 ng/well) were incubated with SAM (20 μM final, CisBio) and dopamine (1.5 μM final; Sigma H8502, Diegem, Belgium) in the presence or absence of varying concentrations (typically 10 concentrations ranging from 10 μM to 0.1 nM) of compound for 40 min at 37° C. in 384-well microtitre plates (10 μl per well final volume). The reaction was terminated by the addition of acylation buffer and the amount of SAH produced determined according to manufacturer's instructions. […]
The human S-COMT assay was performed as above except that 0.15 ng enzyme/well was incubated with SAM (20 μM final) and dopamine (100 μM final) for 15 min at 37° C. and SAH production determined. […]

Sequences of proteins named here, by UniProt entry; tags and fusion partners are left off. Residues count along the entry.
UniProt P21964, 52-271 limits assumed: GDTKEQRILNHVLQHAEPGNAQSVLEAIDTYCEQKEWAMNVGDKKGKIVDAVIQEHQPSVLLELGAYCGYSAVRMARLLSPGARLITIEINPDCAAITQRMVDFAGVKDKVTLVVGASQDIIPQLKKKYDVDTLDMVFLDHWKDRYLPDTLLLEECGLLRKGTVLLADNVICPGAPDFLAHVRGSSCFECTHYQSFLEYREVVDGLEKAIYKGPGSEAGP

SMILES: O=S(=O)(CCCC1CC1)c1ccc(O)c2ncccc12
- Activity range (pIC50): +++ (three plus signs (+++) is associated with a pIC50 of above about 7)
